This is a selection; strong and weak results do not stand in their true shares. Some tests of the compounds listed are not included; inactive here does not mean inactive elsewhere. The source made the active and inactive calls.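 The calls were made as follows: active = inhibition above a per-campaign cutoff equal to the mean of compounds falling between control-based bounds plus 3 SD (cut at about 20% in these data); inactive = the rest.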
Biological target: Disintegrin and metalloproteinase domain-containing protein 10 (Homo sapiens) (UniProt O14672)
Test: human ADAM10 inhibitors, primary screen, biochemical, QFRET, HTS (AID 720582);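 also: 0% = DMSO wells while the 100% control is not disclosed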
Conditions: recombinant ADAM10, EDANS/DABCYL FRET peptide cleavage, 3 h; at 7 µM; hits give high values

The chains behind the UniProt entries cited, without tags or fusion partners. Residues count along the entry.
UniProt O14672, 214-748 limits assumed: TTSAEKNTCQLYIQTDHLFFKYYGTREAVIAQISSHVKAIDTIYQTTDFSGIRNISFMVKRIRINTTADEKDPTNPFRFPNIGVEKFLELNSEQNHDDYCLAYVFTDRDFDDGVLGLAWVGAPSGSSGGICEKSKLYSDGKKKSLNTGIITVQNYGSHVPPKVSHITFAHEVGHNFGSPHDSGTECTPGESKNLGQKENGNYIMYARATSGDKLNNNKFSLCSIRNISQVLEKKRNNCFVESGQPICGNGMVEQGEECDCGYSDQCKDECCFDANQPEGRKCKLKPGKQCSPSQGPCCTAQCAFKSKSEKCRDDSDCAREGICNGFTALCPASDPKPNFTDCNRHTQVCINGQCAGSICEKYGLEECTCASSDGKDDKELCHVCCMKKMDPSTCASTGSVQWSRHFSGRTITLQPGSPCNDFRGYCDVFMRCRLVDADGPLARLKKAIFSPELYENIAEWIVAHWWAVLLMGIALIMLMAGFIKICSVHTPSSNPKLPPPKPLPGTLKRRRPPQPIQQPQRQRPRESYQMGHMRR

Structure (SMILES) | inhibition
C=CCN1CCN(CCOC(=O)C(O)(c2ccccc2)c2ccccc2)CC1 | inactive: -1.51%
O=C(NCC1(N2CCCCC2)CCCCC1)c1cc(F)c(F)cc1Cl | inactive: -0.28%
Cc1cc(C(=O)NCC2(N3CCCCC3)CCCCC2)ccc1[N+](=O)[O-] | inactive: 2.69%
CCN1CCCC(OC(=O)C2(O)c3ccccc3C=Cc3ccccc32)C1 (stereo unspecified) | inactive: 6.75%
O=C(NCC1(N2CCCCC2)CCCCC1)c1cccc(Br)c1 | inactive: 5.56%
COc1ccc(C(=O)NCC2(N(C)C)CCCCC2)cc1 | inactive: 4.63%
Cc1ccccc1C(=O)NCC1(N2CCCCC2)CCCCC1 | inactive: 8.53%
CN(C)C1CCCC1OC(=O)C(O)(c1ccccc1)c1ccccc1 (stereo unspecified) | inactive: -6.85%
CN(C)c1ccc(C(=O)NCC2(N(C)C)CCCCC2)cc1 | inactive: -1.93%
CC(C)N1C(=O)CC2(CCN(CCOC(=O)C(O)(c3ccccc3)c3ccccc3)CC2)C1=O | inactive: -0.68%
CCN(CC)CC(C)C(C)OC(=O)C(O)(c1ccccc1)c1ccccc1 (stereo unspecified) | inactive: -1.12%
COc1cc(SC)ccc1C(=O)NCC1(N(C)C)CCCCC1 | inactive: -0.07%
Cc1ccc(C(=O)NCC2(N3CCCCC3)CCCCC2)cc1 | inactive: 0.88%
O=C(NCC1(N2CCCCC2)CCCCC1)c1cc([N+](=O)[O-])ccc1Cl | inactive: 4.22%
CN1[C@@H]2CC[C@H]1CC(OC(=O)C(O)(c1ccccc1)c1ccccc1)C2 (stereo partly specified) | inactive: -2.17%
COc1ccc(Br)c(C(=O)NCC2(N3CCCCC3)CCCCC2)c1 | inactive: -5.84%
C=C(C)C#CC(O)(C(=O)OC1CCN(C)CC1)c1ccccc1 (stereo unspecified) | inactive: -9.92%
CN(C)c1cccc(C(=O)NCC2(N(C)C)CCCCC2)c1 | inactive: -18.7%
CC(C)Oc1ccc(C(=O)NCC2(N(C)C)CCCCC2)cc1 | inactive: -3.1%
O=C(OCCN1CCCC1)C(O)(c1ccccc1)c1ccccc1 | inactive: -13.4%
O=C(OC1CN2CCC1CC2)C(CO)(c1ccccc1)c1ccccc1 (stereo unspecified) | inactive: -0.34%
COc1cccc(C(=O)NCC2(N3CCCCC3)CCCCC2)c1 | inactive: -10.3%
COc1ccc(Cl)cc1C(=O)NCC1(N(C)C)CCCCC1 | inactive: 7.99%
O=C(NCC1(N2CCCCC2)CCCCC1)c1cccc(Cl)c1 | inactive: -12.7%
CN(C)C1(CNC(=O)c2ccc(Br)cc2)CCCCC1 | inactive: 1.32%
COc1cc(C(=O)NCC2(N(C)C)CCCCC2)c([N+](=O)[O-])cc1OC | inactive: -2.05%
